## Antibody variant affinities, Ab-14 heavy chain, assay B

Values reported by Li et al. 2023, doi:10.1038/s41467-023-39022-2 (FLAb copy).

Antigen: PDVDLGDISGINAS, a 14-residue peptide of the SARS-CoV-2 spike HR2 region.

Each scFv is VH, a (GGGGS)3 linker, VL, as in the parent Ab-14, and differs from it in the CDRs of the heavy chain only.
VH: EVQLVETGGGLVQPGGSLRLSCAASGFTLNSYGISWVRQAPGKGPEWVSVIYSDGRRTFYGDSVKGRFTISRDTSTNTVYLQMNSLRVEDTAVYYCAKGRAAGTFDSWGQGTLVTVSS
VL: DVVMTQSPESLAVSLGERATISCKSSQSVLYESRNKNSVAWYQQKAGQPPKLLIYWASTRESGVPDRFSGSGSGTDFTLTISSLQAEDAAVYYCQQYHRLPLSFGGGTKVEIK

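The variants were designed computationally from a first round of random CDR variants and then made and measured. Group labels follow the data file (Ctrl: baseline library sampled from a position-specific scoring matrix, with some repeated check sequences; Rand: our label for a block that the file lists under HC and that is probably the random mutants of the ten best first-round binders; En: ensemble of fine-tuned language models; GP: Gaussian process model; GPLM: also part of the Gaussian process libraries; HC: hill climbing; Gen: genetic algorithm; Gibbs: Gibbs sampling; a sequence that several methods proposed may carry one label only). The scFvs were displayed on barcoded MATa yeast, the peptide on MATalpha yeast. The frequency of each diploid, read from paired DNA barcodes, reflects how well the two displayed proteins bind. Each replicate has its own calibration line, from reference interactions of the BCL2 family. The assay was run in six technical replicates.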

Each variant is given by its three heavy chain CDRs, as the data file delimits them; those of the parent are GFTLNSYGIS, VIYSDGRRTFYGDSVK, GRAAGTFDS.
Scale: log10 of Kd in nM, estimated from mating counts; low values are strong binders.
A mean of the replicates is given; it leaves out those without a signal.
A pair that was not seen in any replicate is written "not detected"; this usually means weak binding, but a binder can also be missed.
The authors' rule: three or more of the six replicates give a measured affinity, fewer mean a poor binder.

CDR-H1	CDR-H2	CDR-H3	group	mean log10 Kd (nM)	replicates with signal	signal with controls
GFQLNNYGIS	VIYSDGRRTFYEDSVK	GRAAGTFDS	Ctrl	1.52	5/6	1/18
GFDLNEYGIS	VIYADGKRTAYSDSVK	GGNAGFFDS	En_HC	not detected	0/6	0/18
KFSLKSYGIS	VIYSDGRRTFYGDSVK	GRTAGTFDS	GP_Gibbs	not detected	0/6	0/18
GGELDEYGIS	VIYADGIRRQYVDNVK	GETADAFDM	En_Gibbs	not detected	0/6	0/18
GFTLNEYGIS	VIYSDGTRTFYSDSVK	GRAAGTFDS	GP_HC	-0.17	6/6	0/18
GFQLNEYGIS	VIYSDGRRTFYGDSVK	GRQAGTFIS	GP_Gen	not detected	0/6	0/18
GFELNEYGIS	VIYADGRRTFYGDSVK	GRAAGTFIS	GP_HC	not detected	0/6	0/18
GFDLNEYGIS	VIYADGMRTAYSDSVK	GENAGTFVQ	En_Gen	1.03	6/6	1/18
GFNLNSYGIS	VIYSDGRRTFYGDSVK	GDNAGTFDS	Ctrl	1.59	6/6	1/18
GFDLNEYGIS	VIYADGRRTQYIDSVK	GNVAGTFDS	En_HC	0.14	6/6	0/18
GFTLNSQGIS	VIYSDGMRTSYGDSVK	GRAAGTFDS	Ctrl	2.44	1/6	0/18
GFTLNSYGIS	VIYSDGRRTFYTDSVK	GNEAGTFDS	GPLM_HC	-0.50	6/6	0/18
GFTLNSYGIS	VIYSDGRRTAYGDSVK	ESAAGTFDQ	Ctrl	not detected	0/6	0/18
GFDLNEYGIS	VIYADGRRTFYADSVK	GQTAGTFDE	En_HC	0.18	6/6	0/18
GFNLDEFGIS	VIYADGIRTAYLDSFK	GENVNAVDT	En_Gibbs	not detected	0/6	0/18
GFTLNSYGIS	VIYSDGRRTFYGDSVW	GRAAGTFDS	Ctrl	not detected	0/6	0/18
GFDLNEYGIS	VIYADGMRTAYSDNVK	GETAGTFDQ	En_Gen	-0.25	6/6	0/18
GFDLNEYGIS	VIYADGKRTFYSDSVK	GNQAGTFDV	En_Gen	0.33	6/6	0/18
GFDLEDYGIS	VIYADGVRTAYVDNSK	GENGGALYT	En_Gibbs	not detected	0/6	0/18
GFDLNSYGIS	VIYSDGLRTFYEDSVK	GRTAGTFDS	GP_Gibbs	-0.05	6/6	0/18
GFDLNSYGIS	VIYSDGKRTFYGDSVK	GREAGTFDT	GP_Gen	-0.14	6/6	1/18
GQSLSEYGIS	VIYADGVRRSYAESVK	GNTSGNFSS	En_Gibbs	not detected	0/6	0/18
GFVLNSYGIS	VIYADGRRTFYGDSVK	GRAAGTFDS	GPLM_Gen	0.07	6/6	2/18
GFDLNEYGIS	VIYADGMRTFYADSVK	GQLAGTFDI	En_HC	-0.51	6/6	0/18
GFTLNSYGIS	VIYSDGRRTFYGDEVK	GRNAGTFDS	Ctrl	2.71	3/6	0/18
GFTLESYGIS	VIYSDGRRTFYADSVK	GNAAGTFDS	GPLM_Gen	0.46	6/6	0/18
GFDLNEYGIS	VIYADGLRTAYADSVK	GNTAGTFDI	En_Gen	-0.41	6/6	0/18
GFDLNEYGVS	VIYADGFRTSYTDSVK	GNIFDLIMA	En_Gibbs	not detected	0/6	1/18
GFDLNEYGIS	VIYADGQRTAYADSVK	GHNAGTFDV	En_Gen	-0.61	6/6	0/18
GFDLNEYGIS	VIYADGMRTAYTDDVK	GNQAGTFDV	En_Gen	-0.09	6/6	0/18
GFDLDEYGIS	VIYADGMRTAYSDSVK	GTNAGTFDI	En_Gen	0.18	6/6	1/18
GFGLNDYGIS	VIYSDGRRTFYNDDVK	QRAAGTGFS	Ctrl	not detected	0/6	0/18
GFSLDEYGIS	VIYADGQRKHYADSVK	GLIDVYYFA	En_Gibbs	not detected	0/6	0/18
GFDLNEYGIS	VIYADGVRTFYSDSVK	GQTAGTFDA	En_HC	-0.63	6/6	0/18
GFDLNEYGIS	VIYADGQRTAYTDSVK	GENAGTFDV	En_Gen	-0.72	6/6	0/18
GFQLDEYGIS	VIYADGRRTFYTDSVK	GEVAGTFDV	En_HC	-0.89	6/6	0/18
GFELNSYGIS	VIYSDGRRTFYGDSVK	GKTAGTFDW	GP_Gen	1.59	5/6	2/18
GFDLNEYGIS	VIYADGRRTFYADSVK	GNNAGTFIS	En_HC	2.06	6/6	0/18
GFNLNEYGIS	VIYADGNRNAYADSFK	GLHANFFII	En_Gibbs	not detected	0/6	0/18
GFELNSYGIS	VIYADGRRTFYHDSVK	GKAAGTFDS	GP_Gen	not detected	0/6	0/18
GFDLNEYGIS	VIYADGRRTAYSDSVK	GQNAGTFDM	En_Gen	-0.34	6/6	1/18
GFDLDEYGIS	VIYADGVRMAYIDSVK	GNWSGRIMY	En_Gibbs	not detected	0/6	0/18
GFTLNEYGIS	VIYSDGRRTFYGDSVK	GRTAGTFIL	GP_HC	1.96	1/6	0/18
GFNINEYGIS	VIYADGQRLSYDDKVK	GNITGTFNL	En_Gibbs	not detected	0/6	0/18
GFTLNDYGIT	VIYSDGRRKFYGDSVK	GRAAGTFDS	Ctrl	1.77	6/6	0/18
GFDLNEYGIS	VIYADGQRTAYSDDVK	GNVAGTFDV	En_Gen	-0.57	6/6	0/18
GFTLNSYGIS	VIYSDGQRTFYGDSVK	GRAAGTFNN	Ctrl	not detected	0/6	0/18
QFELNSYGIS	VIYADGRRTFYGDSVK	GKAAGTFDS	GP_Gen	1.02	3/6	0/18
GFSLNEYGIS	VIYSDGRRTFYCDSVK	GVAAGTFDR	GP_HC	1.19	5/6	0/18
GFDLNEYGIS	VIYADGQRTAYADDVK	GETAGTFDV	En_Gen	-0.42	6/6	1/18
GFTLNSYGIS	VIYSDGIRTFYGDSVK	GRAAGRFDS	Ctrl	1.96	2/6	0/18
MFDLNSYGIS	VIYSDGRRTFYVDSVK	GRTAGTFDS	GP_Gen	not detected	0/6	0/18
GFDLNEYGIS	VIYADGRRTFYVDSVK	GQLAGTFDL	En_HC	-0.86	6/6	0/18
GQNLDEYGIS	VIYADGQRVAYDDPVK	GEQGGTVMV	En_Gibbs	not detected	0/6	0/18
GFELNSYGIS	VIYSDGRRTFYSDSVK	GNAAGTFDQ	GP_Gibbs	0.82	6/6	1/18
GFDLDEYGIS	VIYADGMRTAYADSVK	GNNAGTFDV	En_Gen	-0.09	6/6	0/18
GFSLNSYGIS	VIYSDGRRTFYGDSVK	GEAAGTFDH	GPLM_Gen	-0.12	6/6	0/18
GFSLNSYGIS	VIYSDGRRTFYKDSVK	GQAAGTFDA	GPLM_Gibbs	0.01	1/6	0/18
GFNLNSYGIS	VIYSDGRRTFYADPVK	GNAAGTFDS	GP_Gibbs	0.61	6/6	0/18
GFDLNEYGIS	VIYADGSRTFYADSVK	GNVAGTFDQ	En_Gen	-0.66	6/6	0/18
GFTLNDYGIS	VIYSDGRRTFYIDSVK	GLAAGTFDS	GPLM_HC	0.99	6/6	0/18
GFDLEEYGIS	VIYADGIRQSAQDNVK	GLLSGMGIT	En_Gibbs	not detected	0/6	0/18
GFTLNSYGIS	VIYSDGRRTFYKDDVK	GRNAGTFDS	Ctrl	1.32	4/6	0/18
GFTLNDYGIS	VIYSDGRRTMYIDSVK	GRAAGTFDA	GP_HC	not detected	0/6	0/18
GFDVDEQGIS	VIYADGLRSMYANSVK	GTIGGMFFQ	En_Gibbs	not detected	0/6	0/18
GFDLNEYGIS	VIYADGRRTSYADSVK	GEAAGTFDV	En_HC	-0.23	6/6	0/18
GFTLNSYGIS	VIYSDGERTFYGDSVK	GRLAGTFDS	Ctrl	0.58	6/6	0/18
GFTLESYGIS	VIYSDGMRTFYADSVK	GRAAGTFDS	GPLM_Gen	1.72	3/6	0/18
GFSLNSYGIS	VIYSDGRRTFYADQVK	GQAAGTFDS	GPLM_Gen	0.72	6/6	1/18
GFQLNEYGIS	VIYSDGRRTFYHDSVK	GRAAGFFDS	GP_HC	2.51	1/6	0/18
GFDLNEYGIS	VIYADGVRTFYVDSVK	GETAGTFDA	En_HC	-0.62	6/6	0/18
GFSLNEYGIS	VIYSDGRRTFYGDAVK	GRNAGTFDS	GP_Gen	-0.02	6/6	1/18
GFDLNEYGIS	VIYADGMRTAYTDSVK	GNNAGTFDL	En_Gen	-0.84	5/6	0/18
GFELNSYGIS	VIYSDGRRTFYGDSVK	GNVAGTFDS	GPLM_Gibbs	-0.20	6/6	0/18
GFTLNSYGES	VIYADGRITHYGDSVK	GHAAGTNKS	Rand	not detected	0/6	1/18
GFDLNSYGIS	VIYSDGRRTFYFDSVK	GRAAGTFDS	GP_HC	2.10	1/6	0/18

Repeated from above, the 11 best binders with a signal in all replicates:

| CDR-H1 | CDR-H2 | CDR-H3 | group | mean log10 Kd (nM) | replicates with signal | signal with controls |
|---|---|---|---|---|---|---|
| GFQLDEYGIS | VIYADGRRTFYTDSVK | GEVAGTFDV | En_HC | -0.89 | 6/6 | 0/18 |
| GFDLNEYGIS | VIYADGRRTFYVDSVK | GQLAGTFDL | En_HC | -0.86 | 6/6 | 0/18 |
| GFDLNEYGIS | VIYADGQRTAYTDSVK | GENAGTFDV | En_Gen | -0.72 | 6/6 | 0/18 |
| GFDLNEYGIS | VIYADGSRTFYADSVK | GNVAGTFDQ | En_Gen | -0.66 | 6/6 | 0/18 |
| GFDLNEYGIS | VIYADGVRTFYSDSVK | GQTAGTFDA | En_HC | -0.63 | 6/6 | 0/18 |
| GFDLNEYGIS | VIYADGVRTFYVDSVK | GETAGTFDA | En_HC | -0.62 | 6/6 | 0/18 |
| GFDLNEYGIS | VIYADGQRTAYADSVK | GHNAGTFDV | En_Gen | -0.61 | 6/6 | 0/18 |
| GFDLNEYGIS | VIYADGQRTAYSDDVK | GNVAGTFDV | En_Gen | -0.57 | 6/6 | 0/18 |
| GFDLNEYGIS | VIYADGMRTFYADSVK | GQLAGTFDI | En_HC | -0.51 | 6/6 | 0/18 |
| GFTLNSYGIS | VIYSDGRRTFYTDSVK | GNEAGTFDS | GPLM_HC | -0.50 | 6/6 | 0/18 |
| GFDLNEYGIS | VIYADGQRTAYADDVK | GETAGTFDV | En_Gen | -0.42 | 6/6 | 1/18 |

The parent sequence was in this pool as ten entries: three were never detected, three once, and four in most replicates, with averages from 0.34 to 2.37.
The range of this assay differs from that of the first round, and the authors advise against merging the two.
Empty control strains, which show no peptide, gave a signal in 1% of pairings with all heavy chain designs; the median was 2.08 and 95% of these signals were weaker than 0.84. No background was subtracted. Also given: how often the same scFv was detected with the empty control strains.